# Measured values: patent US9925170B2, “Methods of adipolysis and compositions useful therein” (priority 2015, dated 2018)
# System: Human mature adipocytes
# Experiment: Effect of statins on human mature adipocytes, cell viability by ALAMARBLUE assay
structure (smiles),measurement,setting,value
CC[C@H](C)C(=O)O[C@H]1C[C@@H](C)C=C2C=C[C@H](C)[C@H](CC[C@@H]3C[C@@H](O)CC(=O)O3)[C@H]21 [lovastatin],dose dependence of cytotoxic effect,"range of concentrations, 7 days (FIG. 3-5)",dose-dependent cytotoxic effect
same,relative cytotoxicity of statins,statin treatment at 10 μM (FIG. 2),more cytotoxic than rosuvastatin and atorvastatin
